The test system of one series is male rats. As to the kind of experiment: Facial formalin model of tonic pain (formalin injection into the lip, facial wiping/grooming). To be noted: rats receiving intranasal N/OFQ in formalin model. As for the experimental part: Time spent grooming was determined over 45 minutes and grouped in 3 minute bins. […] The area under the curve (AUC) for each compound or vehicle was approximated using the trapezodial method. % Reduction=[(Vehicle AUC−Treatment AUC)/Vehicle AUC)]×100%. Data are presented as the mean±1 SEM. (n=6-8 Rats/group).
The paw formalin model is widely used to assess tonic pain efficacy of putative and known analgesic treatments.

Series [1] deals with rats. To be noted: 5.0 mg/kg i.n., 20-30 minutes before charcoal meal.
In series [2] the test system is rats. To be noted: 25 mg/kg intranasal, 4 rats, observed up to 24 hours.

In the case of `CC(C)C[C@H](NC(=O)[C@H](CCCCN)NC(=O)[C@H](CCCN=C(N)N)NC(=O)[C@H](C)NC(=O)[C@H](CO)NC(=O)[C@H](CCCCN)NC(=O)[C@H](CCCN=C(N)N)NC(=O)[C@H](C)NC(=O)CNC(=O)[C@@H](NC(=O)[C@H](Cc1ccccc1)NC(=O)CNC(=O)CNC(=O)[C@@H](N)Cc1ccccc1)[C@@H](C)O)C(=O)N[C@@H](C)C(=O)N[C@@H](CC(N)=O)C(=O)N[C@@H](CCC(N)=O)C(=O)O` [N/OFQ, Nociceptin/orphanin FQ], in the series on male rats, the “sedation or other side-effects” value was “no sedation or other obvious side-effects were observed”. In addition, in the series on rats [1], the “effect on intestinal transit (percent transit)” value was “no such effects were observed”. Further, the abnormal behavioral responses entry in the series on rats [2] was “No abnormal responses were observed”.

The values are drawn from patent publication US9238053B2, “Methods for treatment of pain” (Nocicepta LLC, priority 2009, dated 2016).
